Data as given in paper PMC9841523, “Discovery of RMC-5552, a Selective Bi-Steric Inhibitor of mTORC1, for the Treatment of mTORC1-Activated Tumors” (Journal of Medicinal Chemistry, 2022).

Amino acid sequences for entries named in this document (tags omitted). Residues count along the entry.
UniProt P23219, 24-599: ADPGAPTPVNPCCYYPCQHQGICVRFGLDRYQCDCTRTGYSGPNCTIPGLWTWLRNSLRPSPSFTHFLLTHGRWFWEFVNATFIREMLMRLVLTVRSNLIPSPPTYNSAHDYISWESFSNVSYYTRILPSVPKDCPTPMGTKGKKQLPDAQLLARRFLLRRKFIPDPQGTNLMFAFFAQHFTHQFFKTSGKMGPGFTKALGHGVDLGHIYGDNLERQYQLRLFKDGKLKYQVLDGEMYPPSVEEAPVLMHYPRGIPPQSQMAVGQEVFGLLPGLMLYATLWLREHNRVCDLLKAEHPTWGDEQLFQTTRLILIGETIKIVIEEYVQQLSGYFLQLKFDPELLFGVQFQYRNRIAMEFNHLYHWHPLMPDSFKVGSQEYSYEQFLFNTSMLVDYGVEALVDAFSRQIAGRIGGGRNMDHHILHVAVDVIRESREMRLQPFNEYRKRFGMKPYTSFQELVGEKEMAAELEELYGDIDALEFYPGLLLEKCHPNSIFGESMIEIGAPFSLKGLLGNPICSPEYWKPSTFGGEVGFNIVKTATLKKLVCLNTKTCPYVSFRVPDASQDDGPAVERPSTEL

Legend:
[1] = molecular target: T1, GR (h) (agonist radioligand) (Homo sapiens, UniProt P04150); test: Eurofins Safety Screen 44; assay type: binding; conditions: read-out: % Inhibition of Control Values
T1 construct: purchased ActivX Biosciences (KiNativ)
T1 sequence (P04150 1-777): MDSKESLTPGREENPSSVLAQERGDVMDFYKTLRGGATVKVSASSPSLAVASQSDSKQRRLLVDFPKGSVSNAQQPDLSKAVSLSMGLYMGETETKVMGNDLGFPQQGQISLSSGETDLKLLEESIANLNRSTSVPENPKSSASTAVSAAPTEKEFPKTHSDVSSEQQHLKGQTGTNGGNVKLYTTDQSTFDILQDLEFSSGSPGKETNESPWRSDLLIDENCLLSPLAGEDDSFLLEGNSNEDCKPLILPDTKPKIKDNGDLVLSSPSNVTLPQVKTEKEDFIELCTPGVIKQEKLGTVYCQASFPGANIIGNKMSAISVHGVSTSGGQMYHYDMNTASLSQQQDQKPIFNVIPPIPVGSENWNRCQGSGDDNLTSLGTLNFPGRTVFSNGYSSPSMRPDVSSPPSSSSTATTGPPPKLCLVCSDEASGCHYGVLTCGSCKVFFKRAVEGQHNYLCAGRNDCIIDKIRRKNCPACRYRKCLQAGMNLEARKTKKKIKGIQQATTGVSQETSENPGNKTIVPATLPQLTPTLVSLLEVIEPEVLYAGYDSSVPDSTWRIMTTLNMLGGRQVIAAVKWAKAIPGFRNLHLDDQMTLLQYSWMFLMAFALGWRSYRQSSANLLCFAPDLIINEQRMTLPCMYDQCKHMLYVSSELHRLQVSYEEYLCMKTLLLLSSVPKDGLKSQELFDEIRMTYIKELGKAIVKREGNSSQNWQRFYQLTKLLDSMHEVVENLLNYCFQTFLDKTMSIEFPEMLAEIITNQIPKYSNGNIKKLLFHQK

ROCK1, ROCK2 = test: KiNativ kinase panel; assay type: cell-based, human; conditions: 1 μM; MCF-7 Cells; Lys1; VYAMKLLSK
[2] = system: RSK1 domain1, RSK2 domain1, RSK3 domain1; test: KiNativ kinase panel; assay type: cell-based, human; conditions: 1 μM, MCF-7 Cells, Lys2
COX1(h) = molecular target: T2, COX1(h) (Homo sapiens, UniProt P23219); test: Eurofins Safety Screen 44; assay type: biochemical; conditions: read-out: % Inhibition of Control Values
T2 construct: Eurofins (ran the panel)

[3] = system: 4EBP1 T37/T46 phosphorylation (mTORC1); test: AlphaLISA/MSD analysis of 4EBP1 phosphorylation in MDA-MB-468 cells; assay type: cell-based
Experimental: Cell culture and reagents. Cells were obtained from ATCC, grown in appropriate medium supplemented with 10% fetal bovine serum and 1% penicillin/streptomycin and maintained at 37 °C in a humidified incubator at 5% CO 2.
AlphaLISA and MesoScale Discovery (MSD) analysis of 4EBP1, S6K and AKT phosphorylation. mTOR substrate phosphorylation in MDA-MB-468 cells was assayed using AlphaLISA SureFire Ultra kits for p4EBP1 Thr37/46, p-P70S6K Thr389 and p-AKT1/2/3 Ser473 (PerkinElmer), and MSD Multi-Array Assay Systems for Phospho-4EBP1 (Thr37/46) and Phospho-AKT (Ser473) (MSD). Cells were seeded at 25,000 cells per well and exposed the next day to serial three-fold dilutions of compounds in complete medium with 0.1% dimethylsulfoxide (DMSO). After indicated incubation times, cells were lysed and AlphaLISA or MSD performed according to the manufacturers’ protocols. Samples were read using an EnVision Multilabel Plate Reader (PerkinElmer) using standard AlphaLISA settings or using an MSD plate reader. Data were plotted as a function of logM [compound] with a sigmoidal concentration response (variable slope) model fitted to the data to estimate the inhibitor half-maximum effective concentration (EC 50) in Prism 7 (GraphPad). Alternatively, results were analyzed as percentage of control in which 0% was set as signal from 1 μM Torin1 and 100% was set as the mean of DMSO wells on each plate, and inhibitor EC 50 was estimated as described

Wnk1, Wnk2, Wnk3 = test: KiNativ kinase panel; assay type: cell-based, human; conditions: 1 μM, MCF-7 Cells, Lys2
Wnk1, Wnk2, Wnk4 = test: KiNativ kinase panel; assay type: cell-based, human; conditions: 1 μM, MCF-7 Cells, Activation Loop

## CO[C@H]1C[C@@H]2CC[C@@H](C)[C@@](O)(O2)C(=O)C(=O)N2CCCC[C@H]2C(=O)O[C@H]([C@H](C)C[C@@H]2CC[C@@H](OC(=O)NCCOCCOCCOCCOCCOCCOCCOCCOCCC(=O)N3CCc4cc(Cn5nc(-c6ccc7oc(N)nc7c6)c6c(N)ncnc65)ccc4C3)[C@H](OC)C2)C[C@@H](O)[C@H](C)/C=C(\C)[C@@H](O)[C@@H](OC)C(=O)[C@H](C)C[C@H](C)/C=C/C=C/C=C/1C [compound 38]
[1]
  inhibition at 10 µM: 21.8%
ROCK1, ROCK2
  KiNativ Kinase Panel Data: 20.5
[2]
  KiNativ Kinase Panel Data: 22.0
COX1(h)
  inhibition at 10 µM: 22.1%
[3]
  mTORC1/2 selectivity in MDA-MB-486 cell assay: 40×
  selectivity (mTORC1/mTORC2 ratio): 39.6
  selectivity for mTORC1 over mTORC2: ~40 fold
Wnk1, Wnk2, Wnk3
  KiNativ Kinase Panel Data: -22.1
Wnk1, Wnk2, Wnk4
  KiNativ Kinase Panel Data: 23.6
